Assay results as given in paper PMC9599717, “The Multicellular Effects of VDAC1 N-Terminal-Derived Peptide” (Biomolecules, 2022).

Molecular target: voltage-dependent anion channel 1 (VDAC1), purified, fluorescently labeled (UniProt P21796)
Assay: MST; fluorescently labeled VDAC1 (138 nM) incubated with actin (10–500 nM) or tubulin (20–2000 nM); 10 mM Tricine pH 7.4, 100 mM NaCl; incubation 20 min (methods) or 30 min at 37 °C (legend, actin); NanoTemper Monolith-NT115

For “actin purified from rabbit muscle (G-actin) (from UniProt P68135 1-377) (natural protein; other documents disagree on this pair)”, the Kd was 30 nM.
